Measurements taken from publication PMC4704150 (Antimicrobial Agents and Chemotherapy, 2015).
Marks after values point to notes of the source that are not given here.

Conditions: human, in vivo

In the case of buprenorphine, the “AUC (AUCtau, AUC24), dose normalized, Alone” value is reported as 4,610 (46)^d^,^j pg · h/ml/mg, the “AUC (AUCtau, AUC24), dose normalized, Coadministration” value is reported as 6,940 (38)^d^,^j pg · h/ml/mg and the “Cmax, dose normalized, Alone” value is reported as 642 (43)^i pg/ml/mg. For the same substance, the “Cmax, dose normalized, Coadministration” value was 764 (38)^i pg/ml/mg, the “increase in AUC upon coadministration” value was 51% and the “increase in Cmax upon coadministration” value was 19%.
